{
  "source": "paper PMC6920469",
  "about": "(Scientific Reports, 2019)",
  "system": "CLB-BAR cells",
  "experiment": "Inhibition of ALK activity and downstream signaling (immunoblot), CLB-BAR",
  "format": "cell-based, human",
  "conditions": "200 or 300 nM, 1 h",
  "data": [
    {"smiles": "C[C@@H](Oc1cc(-c2cnn(C3CCNCC3)c2)cnc1N)c1c(Cl)ccc(F)c1Cl", "note": "[crizotinib, reference compound]", "values": [
      {"measurement": "Phosphorylation of ALK and downstream signaling targets (immunoblot)", "value": "inhibit phosphorylation of downstream signaling targets of ALK"}
    ]}
  ]
}
